Here are results for one substance from patent US6656911B2, “Serine protease inhibitors” (Cortech, Inc., priority 1994, dated 2003).

The target in this experiment is T1, human neutrophil elastase (HNE) (Homo sapiens, UniProt P08246).
T1 sequence (P08246 30-267): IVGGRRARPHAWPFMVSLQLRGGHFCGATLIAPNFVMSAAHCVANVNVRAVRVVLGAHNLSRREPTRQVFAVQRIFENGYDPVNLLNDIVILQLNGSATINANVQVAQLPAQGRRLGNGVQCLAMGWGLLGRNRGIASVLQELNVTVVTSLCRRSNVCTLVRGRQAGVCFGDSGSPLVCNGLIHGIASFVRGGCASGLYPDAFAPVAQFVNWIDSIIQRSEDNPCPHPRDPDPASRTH
Description: HNE Ki of CE compounds, tested as described in WO 96/16080. The format is biochemical.

Consider “3-[(4-Morpholino)aceto]amino-quinoline-2-one-N-[1-(2-[5-(3-methylbenzyl)-1,3,4-oxadiazolyl]carbonyl)-2-(S)-methylpropyl]acetamide [CE2116]”, for which the Ki – broadly, a dissociation constant, usually derived from enzyme kinetics or from competition with a known ligand – was 76 nM.
